From patent US20090253669A1, “Substituted Sulfonamide Compounds” (GRUENENTHAL GmbH, priority 2008, published 2009)

Sequences of proteins named here, by UniProt entry; tags and fusion partners are left off.
UniProt P35372, whole entry, looked up: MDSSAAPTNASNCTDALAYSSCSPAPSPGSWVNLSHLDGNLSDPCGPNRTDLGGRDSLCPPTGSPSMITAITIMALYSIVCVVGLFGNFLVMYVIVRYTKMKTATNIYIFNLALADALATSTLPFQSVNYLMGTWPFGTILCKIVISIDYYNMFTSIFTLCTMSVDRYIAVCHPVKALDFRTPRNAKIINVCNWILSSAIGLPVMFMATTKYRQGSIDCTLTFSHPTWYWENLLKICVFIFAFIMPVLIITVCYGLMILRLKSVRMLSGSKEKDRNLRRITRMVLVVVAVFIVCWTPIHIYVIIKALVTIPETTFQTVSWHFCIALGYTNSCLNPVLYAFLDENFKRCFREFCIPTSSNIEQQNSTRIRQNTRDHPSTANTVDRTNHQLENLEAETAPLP

What follows are compounds tested against human μ opiate receptor (Homo sapiens, UniProt P35372) (assay: [3H]-naloxone displacement, SPA, membranes of CHO-K1 cells). Details: 1 μM test substance; inhibition of specific binding of 1 nmol/l [3H]-naloxone.

Point of comparison: `COc1cc(C)c(S(=O)(=O)N2CCCC2COCC(=O)NC2CCC(c3ccccc3)(N3CCOCC3)CC2)c(C)c1` (stereo not shown) [Compound 160, 2-((1-(4-methoxy-2,6-dimethylphenylsulfonyl)pyrrolidin-2-yl)methoxy)-N-(4-morpholino-4-phenylcyclohexyl)acetamide], “μ opioid receptor [1 μM] % inhibition” value 49%. Against it:
- Cc1cc(S(=O)(=O)N2CCCCC2CCC(=O)N(C)CCC2CCC(c3ccccc3)(N3CCCC3)CC2)c(C)cc1Cl (stereo not shown) [Compound 139, 3-(1-(4-chloro-2,5-dimethylphenylsulfonyl)piperidin-2-yl)-N-methyl-N-(2-(4-phenyl-4-(pyrrolidin-1-yl)cyclohexyl)ethyl)propanamide] — higher, 56%
- Cc1cc(S(=O)(=O)N2CCCCC2CCC(=O)N(C)CC2CCC(c3ccccc3)(N3CCCC3)CC2)c(C)cc1Cl (stereo not shown) [Compound 140, 3-(1-(4-chloro-2,5-dimethylphenylsulfonyl)piperidin-2-yl)-N-methyl-N-((4-phenyl-4-(pyrrolidin-1-yl)cyclohexyl)methyl)propanamide] — lower, 28%
- Cc1cc(S(=O)(=O)N2CCCCC2CCC(=O)N(C)CC2CCC(CCc3ccccc3)(N3CCCC3)CC2)c(C)cc1Cl (stereo not shown) [Compound 141, 3-(1-(4-chloro-2,5-dimethylphenylsulfonyl)piperidin-2-yl)-N-methyl-N-((4-phenethyl-4-(pyrrolidin-1-yl)cyclohexyl)methyl)propanamide] — lower, 23%
- O=C(COCC1CCCCN1S(=O)(=O)c1c(Cl)cc(Cl)cc1Cl)NC1CCC(c2ccccc2)(N2CCCC2)CC1 (stereo not shown) [Compound 142, N-(4-phenyl-4-(pyrrolidin-1-yl)cyclohexyl)-2-((1-(2,4,6-trichlorophenylsulfonyl)piperidin-2-yl)methoxy)acetamide] — higher, 98%
- COc1cc(C)c(S(=O)(=O)N2CCCCC2COCC(=O)N(C)CC2CCC(Cc3ccccc3)(N3CCN(C)CC3)CC2)c(C)c1 (stereo not shown) [Compound 143, N-((4-benzyl-4-(4-methylpiperazin-1-yl)cyclohexyl)methyl)-2-((1-(4-methoxy-2,6-dimethylphenylsulfonyl)piperidin-2-yl)methoxy)-N-methylacetamide] — lower, 34%
- COc1cc(C)c(S(=O)(=O)N2CCCCC2COCC(=O)N(C)CC2CCC(CCc3ccccc3)(N3CCN(C)CC3)CC2)c(C)c1 (stereo not shown) [Compound 144, 2-((1-(4-methoxy-2,6-dimethylphenylsulfonyl)piperidin-2-yl)methoxy)-N-methyl-N-((4-(4-methylpiperazin-1-yl)-4-phenethylcyclohexyl)methyl)acetamide] — lower, 19%
- COc1cc(C)c(S(=O)(=O)N2CCCC2COCC(=O)NC2CCC(c3ccccc3)(N3CCCC3)CC2)c(C)c1 (stereo not shown) [Compound 145, 2-((1-(4-methoxy-2,6-dimethylphenylsulfonyl)pyrrolidin-2-yl)methoxy)-N-(4-phenyl-4-(pyrrolidin-1-yl)cyclohexyl)acetamide] — higher, 93%
- O=C(COCC1CCCN1S(=O)(=O)c1c(Cl)cc(Cl)cc1Cl)NC1CCC(c2ccccc2)(N2CCCC2)CC1 (stereo not shown) [Compound 146, N-(4-phenyl-4-(pyrrolidin-1-yl)cyclohexyl)-2-((1-(2,4,6-trichlorophenylsulfonyl)pyrrolidin-2-yl)methoxy)acetamide] — higher, 101%
- COc1cc(C)c(S(=O)(=O)N2CCCCC2COCC(=O)NC2CCC(c3ccccc3)(N3CCCC3)CC2)c(C)c1 (stereo not shown) [Compound 147, 2-((1-(4-methoxy-2,6-dimethylphenylsulfonyl)piperidin-2-yl)methoxy)-N-(4-phenyl-4-(pyrrolidin-1-yl)cyclohexyl)acetamide] — higher, 93%
- COc1cc(C)c(S(=O)(=O)N2CCCC2COCC(=O)N(C)CC2CCC(CCc3ccccc3)(N3CCN(C)CC3)CC2)c(C)c1 (stereo not shown) [Compound 148, 2-((1-(4-methoxy-2,6-dimethylphenylsulfonyl)pyrrolidin-2-yl)methoxy)-N-methyl-N-((4-(4-methylpiperazin-1-yl)-4-phenethylcyclohexyl)methyl)acetamide] — lower, 18%
- COc1cc(C)c(S(=O)(=O)N2CCCCC2COCC(=O)NC2CCC(Cc3ccccc3)(N3CCCC3)CC2)c(C)c1 (stereo not shown) [Compound 149, N-(4-benzyl-4-(pyrrolidin-1-yl)cyclohexyl)-2-((1-(4-methoxy-2,6-dimethylphenylsulfonyl)piperidin-2-yl)methoxy)acetamide] — higher, 73%
- COc1cc(C)c(S(=O)(=O)N(C)CCOCC(=O)NC2CCC(c3ccccc3)(N3CCCC3)CC2)c(C)c1 (stereo not shown) [Compound 150, 2-(2-(4-methoxy-N,2,6-trimethylphenylsulfonamido)ethoxy)-N-(4-phenyl-4-(pyrrolidin-1-yl)cyclohexyl)acetamide] — higher, 85%
- COc1cc(C)c(S(=O)(=O)N2CCCC2COCC(=O)NC2CCC(Cc3ccccc3)(N3CCCC3)CC2)c(C)c1 (stereo not shown) [Compound 151, N-(4-benzyl-4-(pyrrolidin-1-yl)cyclohexyl)-2-((1-(4-methoxy-2,6-dimethylphenylsulfonyl)pyrrolidin-2-yl)methoxy)acetamide] — higher, 66%
- COc1cc(C)c(S(=O)(=O)N2CCCC2COCC(=O)NCC2CCC(c3ccccc3)(N3CCOCC3)CC2)c(C)c1 (stereo not shown) [Compound 152, 2-((1-(4-methoxy-2,6-dimethylphenylsulfonyl)pyrrolidin-2-yl)methoxy)-N-((4-morpholino-4-phenylcyclohexyl)methyl)acetamide] — lower, 32%
- COc1cc(C)c(S(=O)(=O)N2CCC(OCC(=O)NC3CCC(c4ccccc4)(N4CCCC4)CC3)C2)c(C)c1 (stereo not shown) [Compound 153, 2-(1-(4-methoxy-2,6-dimethylphenylsulfonyl)pyrrolidin-3-yloxy)-N-(4-phenyl-4-(pyrrolidin-1-yl)cyclohexyl)acetamide] — higher, 86%
- COc1cc(C)c(S(=O)(=O)N2CCCC2COCC(=O)N(C)CC2CCC(Cc3ccccc3)(N3CCN(C)CC3)CC2)c(C)c1 (stereo not shown) [Compound 154, N-((4-benzyl-4-(4-methylpiperazin-1-yl)cyclohexyl)methyl)-2-((1-(4-methoxy-2,6-dimethylphenylsulfonyl)pyrrolidin-2-yl)methoxy)-N-methylacetamide] — lower, 13%
- COc1cc(C)c(S(=O)(=O)N2CCCCC2COCC(=O)NC2CCC(Cc3ccccc3)(N3CCOCC3)CC2)c(C)c1 (stereo not shown) [Compound 155, N-(4-benzyl-4-morpholinocyclohexyl)-2-((1-(4-methoxy-2,6-dimethylphenylsulfonyl)piperidin-2-yl)methoxy)acetamide] — lower, 34%
- O=C(COCC1CCCN1S(=O)(=O)c1c(Cl)cc(Cl)cc1Cl)NC1CCC(Cc2ccccc2)(N2CCCC2)CC1 (stereo not shown) [Compound 156, N-(4-benzyl-4-(pyrrolidin-1-yl)cyclohexyl)-2-((1-(2,4,6-trichlorophenylsulfonyl)pyrrolidin-2-yl)methoxy)acetamide] — higher, 91%
- COc1cc(C)c(S(=O)(=O)N2CCCCC2COCC(=O)NCC2CCC(c3ccccc3)(N3CCOCC3)CC2)c(C)c1 (stereo not shown) [Compound 157, 2-((1-(4-methoxy-2,6-dimethylphenylsulfonyl)piperidin-2-yl)methoxy)-N-((4-morpholino-4-phenylcyclohexyl)methyl)acetamide] — lower, 36%
- COc1cc(C)c(S(=O)(=O)N2CCCCC2COCC(=O)NC2CCC(c3ccccc3)(N3CCOCC3)CC2)c(C)c1 (stereo not shown) [Compound 158, 2-((1-(4-methoxy-2,6-dimethylphenylsulfonyl)piperidin-2-yl)methoxy)-N-(4-morpholino-4-phenylcyclohexyl)acetamide] — higher, 63%
- COc1cc(C)c(S(=O)(=O)N2CCCC2COCC(=O)NC2CCC(Cc3ccccc3)(N3CCOCC3)CC2)c(C)c1 (stereo not shown) [Compound 159, N-(4-benzyl-4-morpholinocyclohexyl)-2-((1-(4-methoxy-2,6-dimethylphenylsulfonyl)pyrrolidin-2-yl)methoxy)acetamide] — lower, 37%
- CN1CCN(C2(CCc3ccccc3)CCC(CN(C)C(=O)COCC3CCCCN3S(=O)(=O)c3c(Cl)cc(Cl)cc3Cl)CC2)CC1 (stereo not shown) [Compound 161, N-methyl-N-((4-(4-methylpiperazin-1-yl)-4-phenethylcyclohexyl)methyl)-2-((1-(2,4,6-trichlorophenylsulfonyl)piperidin-2-yl)methoxy)acetamide] — lower, 13%
- CN1CCN(C2(Cc3ccccc3)CCC(CN(C)C(=O)COCC3CCCCN3S(=O)(=O)c3c(Cl)cc(Cl)cc3Cl)CC2)CC1 (stereo not shown) [Compound 162, N-((4-benzyl-4-(4-methylpiperazin-1-yl)cyclohexyl)methyl)-N-methyl-2-((1-(2,4,6-trichlorophenylsulfonyl)piperidin-2-yl)methoxy)acetamide] — lower, 42%
- O=C(COCC1CCCN1S(=O)(=O)c1c(Cl)cc(Cl)cc1Cl)NC1CCC(c2ccccc2)(N2CCOCC2)CC1 (stereo not shown) [Compound 164, N-(4-morpholino-4-phenylcyclohexyl)-2-((1-(2,4,6-trichlorophenylsulfonyl)pyrrolidin-2-yl)methoxy)acetamide] — higher, 85%
- COc1cc(C)c(S(=O)(=O)N(C)CCOCC(=O)N(C)CC2CCC(CCc3ccccc3)(N3CCN(C)CC3)CC2)c(C)c1 (stereo not shown) [Compound 165, 2-(2-(4-methoxy-N,2,6-trimethylphenylsulfonamido)ethoxy)-N-methyl-N-((4-(4-methylpiperazin-1-yl)-4-phenethylcyclohexyl)methyl)acetamide] — lower, 27%
- COc1cc(C)c(S(=O)(=O)N2CCC(OCC(=O)NC3CCC(Cc4ccccc4)(N4CCCC4)CC3)C2)c(C)c1 (stereo not shown) [Compound 166, N-(4-benzyl-4-(pyrrolidin-1-yl)cyclohexyl)-2-(1-(4-methoxy-2,6-dimethylphenylsulfonyl)pyrrolidin-3-yloxy)acetamide] — lower, 30%
- COc1cc(C)c(S(=O)(=O)N(C)CCOCC(=O)NC2CCC(c3ccccc3)(N3CCOCC3)CC2)c(C)c1 (stereo not shown) [Compound 167, 2-(2-(4-methoxy-N,2,6-trimethylphenylsulfonamido)ethoxy)-N-(4-morpholino-4-phenylcyclohexyl)acetamide] — lower, 25%
